From patent publication US10870629B2, “18F-labelled compound for prostate cancer diagnosis, and use thereof” (FUTURECHEM CO., LTD., priority 2017, dated 2020)

Chains of the proteins cited; added tags and fusions are not shown.
UniProt Q04609, whole entry: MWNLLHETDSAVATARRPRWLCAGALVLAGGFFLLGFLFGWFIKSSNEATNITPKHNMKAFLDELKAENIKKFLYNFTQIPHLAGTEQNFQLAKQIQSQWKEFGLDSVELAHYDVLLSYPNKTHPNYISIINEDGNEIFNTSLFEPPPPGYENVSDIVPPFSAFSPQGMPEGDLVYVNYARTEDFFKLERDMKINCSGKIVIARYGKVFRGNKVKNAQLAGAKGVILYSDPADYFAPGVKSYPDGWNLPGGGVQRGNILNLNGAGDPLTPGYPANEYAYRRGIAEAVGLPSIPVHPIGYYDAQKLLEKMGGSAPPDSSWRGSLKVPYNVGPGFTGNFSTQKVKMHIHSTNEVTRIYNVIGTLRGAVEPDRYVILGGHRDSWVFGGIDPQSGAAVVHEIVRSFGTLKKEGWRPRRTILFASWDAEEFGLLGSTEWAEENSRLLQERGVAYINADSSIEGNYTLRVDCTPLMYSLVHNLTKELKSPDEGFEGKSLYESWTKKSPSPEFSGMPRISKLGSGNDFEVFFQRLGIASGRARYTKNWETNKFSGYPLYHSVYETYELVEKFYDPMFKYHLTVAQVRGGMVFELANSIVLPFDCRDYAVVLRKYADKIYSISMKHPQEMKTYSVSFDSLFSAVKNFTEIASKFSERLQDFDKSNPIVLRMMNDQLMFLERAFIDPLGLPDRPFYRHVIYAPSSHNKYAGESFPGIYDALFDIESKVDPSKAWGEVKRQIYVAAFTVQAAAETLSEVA

What was measured:
[1] = biological target: PSMA protein (Homo sapiens, UniProt Q04609); assay: Measurement of binding capacity: competition with [125I]15 on 22RV1 cells; conditions: for IC50: read-out: IC50 (Mean ± SD), [125I]15 0.1 nM, 37° C., 2 hours
[2] = system: PC-3 PIP; assay: Measurement of cellular internalization; assay type: cell-based, human
Text: Then, the membrane protein and the cytoplasmic protein were separated by using Mem-PER Plus Membrane Protein Extraction Kit and NE-PER Nuclear and Cytoplasmic Extraction Kit (ThermoFisher Scientific). The internalization rate (%) was confirmed by obtaining the radioactivity ratio in the cytoplasmic protein to the total radioactivity.

[3] = system: PSMA+ PC-3 PIP tumors; assay: MicroPET/CT in mice transplanted with prostate cancer cell lines
[4] = system: PSMA+ PC-3 PIP tumor; assay: Biodistribution test with prostate cancer model mouse
[5] = MicroPET/CT, FIGS. 4A to 4C, versus Example 7-6 and Comparative Example 1
[6] = 0.5 h after tail vein injection

O=C(O)CC[C@H](NC(=O)N[C@@H](CCCCNC(=O)N(Cc1ccncc1)Cc1cn(CCOCCOCC[18F])nn1)C(=O)O)C(=O)O
IC50 [1]: 0.284 µM

O=C(O)CC[C@H](NC(=O)N[C@@H](CCCCNC(=O)NCc1cn(CCOCCOCC[18F])nn1)C(=O)O)C(=O)O
IC50 [1]: 0.0646 µM

O=C(O)CC[C@H](NC(=O)N[C@@H](CCCCNC(=O)N(Cc1cn(CC[18F])nn1)c1ccncc1)C(=O)O)C(=O)O
IC50 value worse, times, compared with [18F]1-6 [1]: more than 70 times
IC50 [1]: 0.391 µM
% Internalization ratio (Mean ± SD) ([2]; 30 min): 94.24 ± 0.80%
% Internalization ratio (Mean ± SD) ([2]; 60 min): 92.33 ± 1.89%
% Internalization ratio (Mean ± SD) ([2]; 120 min): 85.77 ± 6.12%
% Internalization ratio (Mean ± SD) ([2]; 240 min): 95.47 ± 1.52%
tumor/liver (tumor to liver ratio) intake ratio [3, 5]: relatively higher
tumor/muscle (tumor to muscle ratio) intake ratio [3, 5]: relatively higher
tumor binding (MicroPET/CT, FIG. 3) ([3]; mouse, in vivo): selectively bound to PSMA+PC-3 PIP tumors
PIP to blood [4, 6]: 35.64 ± 25.01
PIP to liver [4, 6]: 17.35 ± 4.34
PIP to muscle [4, 6]: 47.39 ± 38.05
PIP to spleen [4, 6]: 7.74 ± 6.03
PIP to blood ([4]; 1 h after tail vein injection): 98.69 ± 30.64
PIP to liver ([4]; 1 h after tail vein injection): 15.92 ± 1.95
PIP to muscle ([4]; 1 h after tail vein injection): 86.15 ± 29.07
PIP to spleen ([4]; 1 h after tail vein injection): 13.77 ± 5.53
PIP to blood ([4]; 2 h after tail vein injection): 487.24 ± 354.87
PIP to liver ([4]; 2 h after tail vein injection): 18.47 ± 7.63
PIP to muscle ([4]; 2 h after tail vein injection): 334.14 ± 260.49
PIP to spleen ([4]; 2 h after tail vein injection): 58.80 ± 53.63
PIP to blood ([4]; 4 h after tail vein injection): 766.82 ± 331.65
PIP to liver ([4]; 4 h after tail vein injection): 20.93 ± 7.40
PIP to muscle ([4]; 4 h after tail vein injection): 533.90 ± 188.93
PIP to spleen ([4]; 4 h after tail vein injection): 128.24 ± 95.38
normal tissue intake rate compared to tumor ([4]; in words): superior

O=C(O)CC[C@H](NC(=O)N[C@@H](CCCCNC(=O)N(Cc1cn(CCOCCOCC[18F])nn1)c1ccncc1)C(=O)O)C(=O)O
IC50 value worse, times, compared with [18F]1-6 [1]: more than 40 times
IC50 [1]: 0.236 µM

O=C(O)CC[C@H](NC(=O)N[C@@H](CCCCNC(=O)N(Cc1ccncc1)Cc1cn(CC[18F])nn1)C(=O)O)C(=O)O
IC50 [1]: 0.0653 µM
